According to article PMC10705477 (bioRxiv, 2023):
Positions count from the first letter of the chain named.

T1: γ-K141A (E. coli, UniProt P06710 1-373, K141A)
T1 sequence: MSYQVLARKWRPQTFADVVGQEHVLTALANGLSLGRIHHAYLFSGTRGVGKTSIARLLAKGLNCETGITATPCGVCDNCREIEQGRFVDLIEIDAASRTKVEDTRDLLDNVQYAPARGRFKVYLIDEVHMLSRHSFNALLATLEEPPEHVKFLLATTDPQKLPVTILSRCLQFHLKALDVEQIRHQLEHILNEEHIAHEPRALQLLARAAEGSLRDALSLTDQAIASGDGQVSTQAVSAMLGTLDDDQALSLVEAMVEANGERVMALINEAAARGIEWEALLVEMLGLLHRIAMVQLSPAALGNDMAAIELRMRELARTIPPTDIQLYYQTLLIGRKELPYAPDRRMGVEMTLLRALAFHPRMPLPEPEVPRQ

T2: γ protein of the E. coli clamp loader, truncated form (residues 1–373) (E. coli, UniProt P06710 1-373)
T2 sequence: T1 sequence with A141K

B1: δ protein of the E. coli clamp loader (natural protein)
chain: MIRLYPEQLRAQLNEGLRAAYLLLGNDPLLLQESQDAVRQVAAAQGFEEHHTFSIDPNTDWNAIFSLCQAMSLFASRQTLLLLLPENGPNAAINEQLLTLTGLLHDDLLLIVRGNKLSKAQENAAWFTALANRSVQVTCQTPEQAQLPRWVAARAKQLNLELDDAANQVLCYCYEGNLLALAQALERLSLLWPDGKLTLPRVEQAVNDAAHFTPFHWVDALLMGKSKRALHILQQLRLEGSEPVILLRTLQRELLLLVNLKRQSAHTPLRALFDKHRVWQNRRGMMGEALNRLSQTQLRQAVQLLTRTELTLKQDYGQSVWAELEGLSLLLCHKPLADVFIDG
B2: E. coli sliding clamp (ß-clamp) (natural protein)
chain: MKFTVEREHLLKPLQQVSGPLGGRPTLPILGNLLLQVADGTLSLTGTDLEMEMVARVALVQPHEPGATTVPARKFFDICRGLPEGAEIAVQLEGERMLVRSGRSRFSLSTLPAADFPNLDDWQSEVEFTLPQATMKRLIEATQFSMAHQDVRYYLNGMLFETEGEELRTVATDGHRLAVCSMPIGQSLPSHSVIVPRKGVIELMRMLDGGDNPLRVQIGSNNIRAHVGDFIFTSKLVDGRFPDYRRVLPKNPDKHLEAGCDLLKQAFARAAILSNEKFRGVRLYVSENQLKITANNPEQEEAEEILDVTYSGAEMEIGFNVSYVLDVLNALKCENVRMMLTDSVSSVQIEDAASQSAAYVVMPMRL
B3: δ’ protein of the E. coli clamp loader (natural protein)
chain: MRWYPWLRPDFEKLVASYQAGRGHHALLIQALPGMGDDALIYALSRYLLCQQPQGHKSCGHCRGCQLMQAGTHPDYYTLAPEKGKNTLGVDAVREVTEKLNEHARLGGAKVVWVTDAALLTDAAANALLKTLEEPPAETWFFLATREPERLLATLRSRCRLHYLAPPPEQYAVTWLSREVTMSQDALLAALRLSAGSPGAALALFQGDNWQARETLCQALAYSVPSGDWYSLLAALNHEQAPARLHWLATLLMDALKRHHGAAQVTNVDVPGLVAELANHLSPSRLQAILGDVCHIREQLMSVTGINRELLITDLLLRIEHYLQPGVVLPVPHL
B4: His-δ’ (natural protein)
chain: B3 chain

Assays:
[1] = molecular target: T1, γ-K141A; assay: co-purification on an anion-exchange column
[2] = molecular target: T2, γ protein of the E. coli clamp loader, …; assay: cryo-EM structure
[3] = molecular target: T2, γ protein of the E. coli clamp loader, …; assay: cryo-EM structure; remark: listed apart in the source
[4] = molecular target: B2; assay: cryo-EM structure
[5] = molecular target: T2, γ protein of the E. coli clamp loader, …; assay: co-purification on an anion-exchange column

B1: binds [1]; binds [2].

B2: binds [3].

B3: binds [3]; binds [4].

B4: binds [5].
